Measurements: US20240189490A1, “ANTIMICROBIAL ELUTING AIRWAY DEVICES” (priority 2021, published 2024)

Assay: Release of loaded protein or peptide from coated ET tubes in PBS
Assay type: physicochemical
Details: from PLGA coated ET tubes, PBS at 37° C. shaking at 100 rpm, after initial burst release
Protocol: Release Quantification. Release of loaded protein or peptide from ET tubes was achieved from quartered tube segments in PBS at 37° C. while shaking at 100 rpm. FITC-BSA elution and PLGA degradation samples were obtained by completely removing the supernatant and adding fresh PBS to each well. FITC-BSA release was measured via fluorescence on a Synergy H1 Microplate Reader (BioTek) with 485 nm excitation and 515 nm emission wavelengths. PLGA degradation was quantified via EnzyFluo L-Lactate Assay Kit (Bioassay Systems). Peptide release was quantified via Pierce Quantitative Fluorometric Peptide Assay (Thermo Scientific). Total encapsulation of FITC-BSA coated tubes was determined by 2.5M NaOH degradation at room temperature rotating at 40 rpm for 72 hours and measuring fluorescence as previously described.

For “albumin-fluorescein isothiocyanate conjugate [FITC-BSA]”, which linear release is on record?
The linear release was 1.89 µg/day.
